Assay results as given in ChEMBL document CHEMBL4190171, “Chemical probes and inhibitors of bromodomains outside the BET family” (Medchemcomm, 2016).

By UniProt entry, the sequences of proteins in these tests, tags left out.
UniProt Q92831, whole entry: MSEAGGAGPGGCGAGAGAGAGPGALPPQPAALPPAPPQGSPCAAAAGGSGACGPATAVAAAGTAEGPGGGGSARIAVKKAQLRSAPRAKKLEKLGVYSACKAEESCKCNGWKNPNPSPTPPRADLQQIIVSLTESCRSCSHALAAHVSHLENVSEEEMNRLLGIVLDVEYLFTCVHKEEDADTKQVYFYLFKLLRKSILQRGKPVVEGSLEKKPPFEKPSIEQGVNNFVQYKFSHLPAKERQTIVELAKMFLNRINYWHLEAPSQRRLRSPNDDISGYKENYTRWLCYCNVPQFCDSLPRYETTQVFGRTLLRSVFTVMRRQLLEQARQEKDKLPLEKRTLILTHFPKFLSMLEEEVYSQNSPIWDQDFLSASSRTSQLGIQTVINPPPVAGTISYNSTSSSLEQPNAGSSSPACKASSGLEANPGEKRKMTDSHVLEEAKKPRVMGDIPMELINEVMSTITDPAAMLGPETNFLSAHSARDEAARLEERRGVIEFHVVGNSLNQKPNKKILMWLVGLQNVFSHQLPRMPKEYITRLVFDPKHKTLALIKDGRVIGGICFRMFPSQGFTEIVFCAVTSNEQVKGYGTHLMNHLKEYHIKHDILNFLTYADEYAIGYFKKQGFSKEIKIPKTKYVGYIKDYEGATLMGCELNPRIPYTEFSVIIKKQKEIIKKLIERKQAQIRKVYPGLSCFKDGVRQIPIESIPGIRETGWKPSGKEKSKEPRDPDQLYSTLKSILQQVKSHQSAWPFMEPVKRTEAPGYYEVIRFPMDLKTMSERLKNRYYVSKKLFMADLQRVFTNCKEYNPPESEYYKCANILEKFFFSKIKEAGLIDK

Molecular target: Histone acetyltransferase KAT2B (Homo sapiens, UniProt Q92831)

IC50: 13 nM
Structure (SMILES): CC(C)C[C@H]1C[C@@H](Nc2cnn(C)c(=O)c2Cl)CN(C)C1
